{"sequences": {"note": "Sequences of proteins named here, by UniProt entry; tags and fusion partners are left off.", "UniProt P10828, whole entry": "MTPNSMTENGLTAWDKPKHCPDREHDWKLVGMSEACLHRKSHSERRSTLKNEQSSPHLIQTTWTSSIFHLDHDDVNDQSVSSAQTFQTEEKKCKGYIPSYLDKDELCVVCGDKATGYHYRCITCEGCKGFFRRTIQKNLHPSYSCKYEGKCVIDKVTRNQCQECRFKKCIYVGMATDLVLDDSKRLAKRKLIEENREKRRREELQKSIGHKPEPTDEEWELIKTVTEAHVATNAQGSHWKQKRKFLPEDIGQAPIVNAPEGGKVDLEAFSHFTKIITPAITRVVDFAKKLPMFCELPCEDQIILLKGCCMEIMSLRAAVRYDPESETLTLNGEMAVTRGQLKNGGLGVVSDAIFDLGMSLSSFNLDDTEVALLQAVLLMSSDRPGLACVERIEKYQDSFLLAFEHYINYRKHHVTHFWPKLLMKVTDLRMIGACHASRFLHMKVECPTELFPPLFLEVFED"}, "source": "PubChem BioAssay AID1469", "about": "(National Center for Advancing Translational Sciences (NCATS), 2008)", "biological_target": "Thyroid hormone receptor beta (Homo sapiens) (UniProt P10828)", "assay": "qHTS for Inhibitors of the Interaction of Thyroid Hormone Receptor and Steroid Receptor Coregulator 2;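 also: plate controls were bound peptide for no effect and peptide without receptor for full effect; nearly all actives have a fitted effect of over 50% in size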", "settings": "TRbeta-SRC2 peptide binding, fluorescence polarization, receptor liganded with 1 µM T3", "text": "NIH Molecular Libraries Probe Production Network [MLPCN]\nNIH Chemical Genomics Center [NCGC]\nAssay Provider: R. Kip Guy, St. Jude Children's Research Hospital\nThyroid receptor (TR) regulates many homeostatic processes including basal metabolism, cardiovascular function, body weight, and lipid trafficking. TR modulators are potential therapeutics for obesity and hyperlipidemias but current thyroid analogs have undesirable side effects, particularly cardiac stimulation. To identify inhibitors that specifically prevent the interaction of TR with the steroid receptor coregulator 2 (SRC2), a fluorescence polarization assay was screened. This assay detects interaction of the ligand-binding domain of human TRb with a Texas Red labeled SRC2 peptide, corresponding to a 20 amino acid region of the nuclear receptor interaction domain (Arnold et al., 2006). Small molecule inhibitors that block the interaction of TR and SRC2 are detected by a decrease in fluorescence polarization.\nArnold, L. A.; Estebanez-Perpina, E.; Togashi, M.; Shelat, A.; Ocasio, C. A.; McReynolds, A. C.; Nguyen, P.; Baxter, J. D.; Fletterick, R. J.; Webb, P.; Guy, R. K. A high-throughput screening method to identify small molecule inhibitors of thyroid hormone receptor coactivator binding. Sci STKE 2006, p 13.\nNCGC Assay Protocol Summary:\nFor screening, 5 uL/well 0.6 uM TRb and 20 nM SRC2 Texas Red in protein buffer (20mM Tris hydrochloride, 100mM NaCl, 10% glycerol, 1mM EDTA, 0.01% NP-40, 1mM DTT, 1uM T3 and 5% DMSO) was dispensed into black solid 1536-well plates (Grenier) using a solenoid-based dispenser. Following transfer of 23 nL compound or DMSO vehicle by a pin tool, the plates were centrifuged 15 s at 1000 RPM and incubated 5 hr at ambient temperature. […] Data were normalized to unbound (all components except TRb) and bound SRC2 Texas Red controls. In this assay, we provide % activity data for each concentration as well as potencies for the active compounds.\nKeywords: NIH Roadmap, MLPCN, MLI, MLSMR, qHTS, NCGC, qHTS, thyroid hormone receptor, steroid receptor coactivator, fluorescence polarization", "note": "Several values for one entry are separate records, joined by “and”; a condition that tells them apart may be missing. Identical values can stand only once. The list shows a part of the results, in another mix than the full data. Activity calls are given as the source filed them. Calls follow the shape of the dose curve; as a rule, active = well fitted inhibition curve with a large enough effect; inconclusive = small, poorly fitted or top-dose-only effect, or effect the other way; inactive = flat fitted curve, though single readings scatter.", "data": [{"smiles": "O=[N+]([O-])C(Cl)(Cl)Cl", "values": [{"measurement": "activity change, negative = inhibition", "setting": "at 106 µM (top of the series)", "result": "inactive: 1.22%"}, {"measurement": "activity change, negative = inhibition", "setting": "at 201 µM (top of the series)", "result": "inactive: 1.18%"}]}, {"smiles": "CN(CCCl)CCCl", "values": [{"measurement": "activity change, negative = inhibition", "setting": "at 106 µM (top of the series)", "result": "inactive: 8.54% and inactive: 7.74%"}]}]}
